Measurements from ChEMBL document CHEMBL4765234, “The Discovery, Preclinical, and Early Clinical Development of Potent and Selective GPR40 Agonists for the Treatment of Type 2 Diabetes Mellitus (LY2881835, LY2922083, and LY2922470)” (J Med Chem, 2016).
Calls of active or inactive are those of the source. No cut-off for these calls is given here.

Chains of the proteins cited; added tags and fusions are not shown.
UniProt O14842, whole entry: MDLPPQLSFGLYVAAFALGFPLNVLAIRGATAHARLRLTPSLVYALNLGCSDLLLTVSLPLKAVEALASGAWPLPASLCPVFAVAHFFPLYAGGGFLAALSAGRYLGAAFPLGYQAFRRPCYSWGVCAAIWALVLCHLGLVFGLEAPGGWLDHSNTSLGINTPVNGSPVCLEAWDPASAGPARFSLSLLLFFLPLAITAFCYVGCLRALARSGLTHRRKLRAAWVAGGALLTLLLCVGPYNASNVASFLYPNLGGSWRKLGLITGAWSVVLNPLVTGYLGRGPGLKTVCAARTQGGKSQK

Target: Free fatty acid receptor 1 (Homo sapiens, UniProt O14842)
Assay: Displacement of [3H]-(S)-3-(isoxazol-3-yl)-3-(4-((2-phenyl-[1,2,4]triazolo[1,5-a]pyridin-6-yl)methoxy)phenyl)propanoic acid from human recombinant full-length GPR40 expressed in human HEK293 cells assessed as dissociation constant at 1.37 to 1000 nM measured after 180 mins by radioligand competitive assay
Type: cell-based
Conditions: dose 1.37-1000 nM

Activity: inactive
SMILES: Cc1cc(OCCCS(C)(=O)=O)cc(C)c1-c1cccc(COc2ccc3c(c2)OC[C@H]3CC(=O)O)c1
